Values quoted from earlier work in patent US20260183305A1, “METHYLENE BLUE FOR USE IN THERAPY OF HEPATITIS B AND/OR HEPATITIS D INFECTION” (priority 2022, published 2026).

Assays:
[1] = soldiers, several weeks, malaria prophylaxis; cited from earlier work
[2] = after oral administration; cited from earlier work
[3] = 5 mg/ml solution, pH higher than 4.5; cited from earlier work

Compound: CN(C)c1ccc2nc3ccc(N(C)C)cc3[s+]c2c1.[Cl-] [MB, [7-(dimethylamino)phenothiazin-3-ylidene]-dimethylazanium, chloride]
- dose received without major side effects [1]: more than 400 mg of MB per day
- time of peak plasma concentrations [2]: two
- long term stability [3]: compromised at higher pH
